Test results published in patent US10865196B2, “Compounds for treatment of cancer” (University of Tennessee Research Foundation, priority 2008, dated 2020).

Tested on: PC-3/TxR
Assay: SRB antiproliferation assay, paclitaxel-resistant PC-3/TxR
Conditions: IC50 values in PC-3 and PC-3/TxR compared

COc1cc(C(=O)c2csc(Nc3ccc4[nH]ccc4c3)n2)cc(OC)c1OC [compound 55, (2-(1H-indol-5-ylamino)thiazol-4-yl)(3,4,5-trimethoxyphenyl)methanone]
resistance factor PC-3/TxR vs PC-3: 0.4
